Antibody variant affinities, Ab-14 light chain, assay 1

Target peptide (SARS-CoV-2 spike, HR2 region): PDVDLGDISGINAS

Each scFv is VH, a 15-residue (Gly4Ser)3 linker, VL, as in the parent Ab-14, and differs from it in the CDRs of the light chain only.
VH: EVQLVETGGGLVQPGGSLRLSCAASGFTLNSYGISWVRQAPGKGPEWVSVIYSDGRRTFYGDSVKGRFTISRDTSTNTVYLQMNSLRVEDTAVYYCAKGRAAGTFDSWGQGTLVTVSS
VL: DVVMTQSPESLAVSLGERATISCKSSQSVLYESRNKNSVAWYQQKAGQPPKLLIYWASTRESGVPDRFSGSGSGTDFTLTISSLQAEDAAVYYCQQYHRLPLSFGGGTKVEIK

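The parent was found by panning a naive human phage display library on the peptide. Library AAYL50 holds single substitutions and randomly drawn double and triple substitutions in the CDRs. In AlphaSeq, yeast of one mating type display the scFv and yeast of the other type display the target. Pairs that bind mate more often; barcode pairs of the diploids are counted by sequencing. Read counts were normalised to the haploid input and turned into Kd by a linear fit to BCL2-family pairs of known affinity, for each replicate. Each pool was mated in three replicate cultures.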

Variants are written as CDR1, CDR2 and CDR3 of the light chain (limits as in the source). Parent: KSSQSVLYESRNKNSVA, WASTRES, QQYHRLPLS. Kd is apparent (estimated from mating counts) and averaged on the log scale over replicates with a signal. Smaller is tighter. Where no diploid with the target was found in any replicate, the entry reads "nd": below detection, most likely a poor binder, though not proof of it. Empty control strains, which show no peptide, gave a signal in 18% of pairings with library AAYL50; the median was 15 µM and 95% of these signals were weaker than 970 nM. No background was subtracted. For each scFv, signals with the empty controls are counted beside the result. In this assay the parent's reference entry averaged 4.4 nM; its copy inside this library read 48 nM.

CDR-L1 | CDR-L2 | CDR-L3 | Kd (apparent) | detected | signal with controls
KSSQSVLYEFRNKNSVA | WASTRNS | QQYHRKPLS | nd | 0/3 | 0/9
KSSQSVLYESRNMNYVA | WASTRES | QQYGRLPLS | 220 nM | 3/3 | 3/9
KSSQSVLYESDNKNSVA | WASTYES | QQYHRLPNS | nd | 0/3 | 0/9
KSSQVVLYESRNKNSVA | WASSRES | QQYHRLPLS | nd | 0/3 | 1/9
KSSASVLEESRNKNSVA | WASTRES | QQYHRLPVS | 130 nM | 3/3 | 0/9
HSSQSVLYESRNKCSVA | WASTRES | QQYHRLPLF | 310 nM | 1/3 | 0/9
KSSQSVLYESRNKQSVA | WACTRES | QQYHRLPQS | 17 µM | 2/3 | 3/9
KSSQSVLYESRNKISVA | DASTRES | VQYHRLPLS | 5.3 nM | 3/3 | 2/9
KSSQWVLYEGRNKNSVA | WASTRES | QQYHRLPLS | 19 nM | 3/3 | 1/9
KESQSVLYESRNKNSVA | WASTRES | QQYRRLPLS | 38 nM | 3/3 | 2/9
KSSQSVLYESRNKNTVA | WASTRES | QQYHSLVLS | 86 µM | 1/3 | 3/9
KSSQSVLYESRNKNSDR | WASTRES | RQYHRLPLS | 36 µM | 1/3 | 1/9
KSSQQVLYESRNKNSVA | WASVRES | QQYHRTPLS | 230 nM | 3/3 | 3/9
KMSQSHIYESRNKNSVA | WASTRES | QQYHRLPLS | 1.1 nM | 3/3 | 6/9
KSSQCVLYESRNKNHVA | WASTRES | QQYHWLPLS | nd | 0/3 | 0/9
KSSMSVLYESRNKNSVA | WASTRES | QFHHRLPLS | 5.9 nM | 3/3 | 1/9
KSSDSVLYELRNKNSVD | WASTRES | QQYHRLPLS | 1.8 µM | 1/3 | 1/9
KSSQWVLYESRNKNSVA | WASLRVS | QQYHRLPLS | 45 nM | 3/3 | 2/9
KSSQSVLYESRNMNQVM | WASTRES | QQYHRLPLS | 18 µM | 3/3 | 2/9
KSSQSWLYEYRNKNSYA | WASTRES | QQYHRLPLS | 210 µM | 3/3 | 6/9
KSSISVLFESRNKNSEA | WASTRES | QQYHRLPLS | 2.5 µM | 1/3 | 5/9
PSSQSVLYESRNKNNVA | WASTRES | QQKHRLPLS | 100 µM | 3/3 | 2/9
CSSQSYLYESRNKNSVA | WASTRES | QQEHRLPLS | 38 µM | 1/3 | 0/9
KSSQSVLYESRNKNSMA | WASTRWS | QQYHRLPES | 31 µM | 1/3 | 4/9
ISSQSVLYESRNKNSVA | WASTRES | RQYHRLQLS | 3.4 µM | 2/3 | 3/9
KSSLSVLYESRNKNSVK | WASTRES | QQYHHLPLS | nd | 0/3 | 1/9
KVSQSVLYESRNKNSVA | WAKTRQS | QQYHRLPLS | 3.7 µM | 3/3 | 3/9
KSSQSVLYESHNKNSVA | WASTRES | TQYHRLPLT | nd | 0/3 | 1/9
KSSQSVLYESRNKNSVA | WASTRCS | RQYHREPLS | 5.6 nM | 3/3 | 1/9
KSSQSVLYESRNKNLVA | WASTFES | QRYHRLPLS | nd | 0/3 | 2/9
KSSQRVLYESRNKNSVA | WASTRES | EQYHRKPLS | nd | 0/3 | 1/9
KSSQSVLYESRNKNSVA | WASTQQS | QQYHRLPLS | nd | 0/3 | 0/9
KSSQDVLYESRNKNSVA | WAVTRIS | QQYHRLPLS | 360 nM | 3/3 | 1/9
KSSQSVLYESRNKNSVA | WACTRES | QQYFRLTLS | nd | 0/3 | 1/9
KSSQSVLYESRNKNSRA | WASTAIS | QQYHRLPLS | 390 µM | 1/3 | 5/9
KSSQSVLYESRNKNSVA | YASTKWS | QQYHRLPLS | 200 nM | 3/3 | 0/9
ANSQSVLYESRNKNSVA | WASTRWS | QQYHRLPLS | 970 nM | 3/3 | 0/9
KPSQSVLYESRGKNSVA | WASTRES | QQYARLPLS | 170 nM | 3/3 | 5/9
KSSQSVLYESRNKNSVS | VAITRES | QQYHRLPLS | 1.1 µM | 1/3 | 0/9
KSSQSVLYESRNKNSFA | EASTRES | QQYHRLILS | 16 nM | 3/3 | 0/9
FSSQSVLYESRNKNSHA | WASTRES | QDYHRLPLS | 2.6 nM | 3/3 | 2/9
KSSQSVLYWSRNKLSVA | WASTRES | FQYHRLPLS | 26 µM | 3/3 | 4/9
KSSPSVLYEHRNKNSVA | WASTRES | QQYHRYPLS | 38 nM | 3/3 | 4/9
KFSQSVLYESRNGNSVA | WASTRES | QQYHRLKLS | 1.8 nM | 3/3 | 0/9
KLSQSVLYLSRNYNSVA | WASTRES | QQYHRLPLS | nd | 0/3 | 0/9
KSLQSVLYESRNKNSVL | WASTRNS | QQYHRLPLS | 39 µM | 2/3 | 4/9
KSSQSVLYESRMHNSVA | WASTRES | QQYVRLPLS | 300 nM | 3/3 | 2/9
KSSQSHLAESRNKNSDA | WASTRES | QQYHRLPLS | nd | 0/3 | 1/9
KSSQSVLYESRNKRSVA | WASTLES | RQYHRLPLS | nd | 0/3 | 0/9
PSSQSVLYESPNKNSVA | WASTRES | QQYHRLKLS | 4.2 µM | 1/3 | 1/9
KSSQFVLYESRGKNSVA | WASTWES | QQYHRLPLS | 35 µM | 2/3 | 0/9
KSSQVVLYESRNKNSVA | WASTRES | QQYHVLMLS | 1.1 µM | 3/3 | 1/9
KSSQSVLYESRIKNSRA | WASTRES | QQYHFLPLS | nd | 0/3 | 0/9
KSVQSVLYESRNKFSVA | WASTDES | QQYHRLPLS | 39 µM | 2/3 | 4/9
KSSQSVLYESRNKNSQA | WASTRED | QQYHRQPLS | 2.1 µM | 1/3 | 0/9
DSSQSVLYESRNKNSVA | WASTRGS | QQYHRYPLS | nd | 0/3 | 0/9
KASQHVLYESRNKMSVA | WASTRES | QQYHRLPLS | 72 nM | 3/3 | 5/9
KSPQSVLPESRDKNSVA | WASTRES | QQYHRLPLS | 14 nM | 3/3 | 1/9
KSSQSHLLESRNKNSVA | WASMRES | QQYHRLPLS | 1.5 nM | 3/3 | 0/9
KSSQSVYYESRTKNSVA | WASTRES | QQYHRLPLL | 30 nM | 3/3 | 0/9
KSSQSVLYESRNKNSVA | WDSTRES | QNPHRLPLS | nd | 0/3 | 0/9
KSSQSVLYESRNKNSVA | WASVRES | QNYNRLPLS | 190 nM | 3/3 | 1/9
KSSQSFLYESRNKNSVA | WHSTRES | QQYHRNPLS | 2.7 µM | 1/3 | 1/9
KSSSSVLYESRNANSVA | WASTKES | QQYHRLPLS | 31 nM | 3/3 | 1/9
KSSQSVLYQERNKNSVA | WASTRES | QQYHRLPHS | nd | 0/3 | 1/9
KSSQSVPYESRNKNSVA | WASTYES | MQYHRLPLS | 52 µM | 1/3 | 3/9
KSSWSVLMESRNKNVVA | WASTRES | QQYHRLPLS | 38 nM | 3/3 | 0/9
FSSQSVLYESRNKNSVA | AASTRES | QQCHRLPLS | 2.1 nM | 3/3 | 4/9
KSSQSVQYESRNKNSVA | WACTRES | QQYHRLFLS | 2.5 µM | 1/3 | 1/9
KSSQSVLYESRNKNYVA | WASTRES | QQYHRLCYS | nd | 0/3 | 0/9
KSSQEVLYESRNKNSVA | WAVTRMS | QQYHRLPLS | 42 nM | 3/3 | 0/9
KSSQSVLYFSRNKNSVA | WAHTRES | SQYHRLPLS | 4.6 µM | 2/3 | 0/9
KSPQSVLYESRNKNSVA | WASTRES | QQAHRLPVS | 210 µM | 1/3 | 3/9
KSSQPVLYESRNKNSVD | WASTRES | QQYNRLPLS | nd | 0/3 | 2/9
KSQQSVLYESRNKESVA | WASTRNS | QQYHRLPLS | 50 nM | 3/3 | 1/9
KSSQSVLYNSRNKASVA | WASTRES | QQYHRLPCS | 76 nM | 3/3 | 0/9
KSSQSVLYESLNKNSVA | WASTRES | TQYQRLPLS | nd | 0/3 | 3/9
KSHQSVLDESRNKNSVA | WASTRES | QQYHRGPLS | 830 pM | 3/3 | 0/9
KSSQSVLYVSRTSNSVA | WASTRES | QQYHRLPLS | 11 µM | 2/3 | 4/9

Extract of 11 entries:

CDR-L1 | CDR-L2 | CDR-L3 | Kd (apparent) | detected | signal with controls
KSSQSVLYESRNKNSMA | WASTRWS | QQYHRLPES | 31 µM | 1/3 | 4/9
KSSQSVLYESRMHNSVA | WASTRES | QQYVRLPLS | 300 nM | 3/3 | 2/9
KSSQSVLYQERNKNSVA | WASTRES | QQYHRLPHS | nd | 0/3 | 1/9
KSSQSVLYESRNKISVA | DASTRES | VQYHRLPLS | 5.3 nM | 3/3 | 2/9
KMSQSHIYESRNKNSVA | WASTRES | QQYHRLPLS | 1.1 nM | 3/3 | 6/9
KSSLSVLYESRNKNSVK | WASTRES | QQYHHLPLS | nd | 0/3 | 1/9
KSSQSVQYESRNKNSVA | WACTRES | QQYHRLFLS | 2.5 µM | 1/3 | 1/9
KSSQDVLYESRNKNSVA | WAVTRIS | QQYHRLPLS | 360 nM | 3/3 | 1/9
KASQHVLYESRNKMSVA | WASTRES | QQYHRLPLS | 72 nM | 3/3 | 5/9
KESQSVLYESRNKNSVA | WASTRES | QQYRRLPLS | 38 nM | 3/3 | 2/9
KSSQEVLYESRNKNSVA | WAVTRMS | QQYHRLPLS | 42 nM | 3/3 | 0/9

From the AlphaSeq antibody data of Engelhart et al. 2022 (doi:10.1038/s41597-022-01779-4), copy in the FLAb collection.